Measured values from patent publication US9428503B2, “Imidazo[4,5-c]quinolin-2-one compounds and their use in treating Cancer” (AstraZeneca AB, priority 2014, dated 2016).
Structures can show the parent of a compound that is named as a salt.

Assays:
Assay type in all cases: cell-based
ATR kinase = ATR kinase (Homo sapiens (Human), UniProt Q13535); experiment: Assay b) ATR cellular potency assay (pChk1 Ser345 in HT29 cells treated with 4NQO); details: HT29 cells, pChk1 Ser345 after 4NQO; geometric mean where repeated; read-out: Assay b) ATR Cell IC50
mTOR = mTOR (Homo sapiens (Human), UniProt P42345); experiment: Assay d) mTOR cellular potency assay (phospho-AKT Ser473 in MDA-MB-468 cells); details: MDA-MB-468 cells, phospho-AKT Ser473, 2 h; geometric mean where repeated; read-out: Assay d) mTOR Cell IC50
PI3K-α = PI3K-α (Homo sapiens, UniProt P42336); experiment: Assay c) PI3K cellular potency assay (phospho-Akt T308 ELISA in BT474 cells); details: BT474 cells, phospho-Akt T308, 2 h; geometric mean where repeated; read-out: Assay c) PI3Kα Cell IC50
ATM kinase = ATM kinase (Homo sapiens (Human), UniProt Q13315); experiment: Assay a) ATM cellular potency assay (pATM Ser1981 in X-ray irradiated HT29 cells); details: HT29 cells, pATM Ser1981 after X-ray irradiation; geometric mean where repeated; read-out: Assay a) ATM Cell IC50

**Q.** How did the IC50 (ATR kinase) turn out when `CN(C)CCCOc1ccc(-c2ccc3ncc4c(c3c2)n(C2CCOCC2)c(=O)n4C)cn1` [Example 1, 8-[6-(3-Dimethylaminopropoxy)pyridin-3-yl]-3-methyl-1-(oxan-4-yl)imidazo[5,4-c]quinolin-2-one] was run?
**A.** The IC50 was 6.16 µM.

**Q.** What about the IC50 (mTOR) of the same molecule?
**A.** Its IC50 is 0.61 µM.

**Q.** Which IC50 (PI3K-α) does the source give for `Cn1c(=O)n([C@@H]2CCOC2)c2c3cc(-c4ccc(OCCCN5CCCCC5)nc4)ccc3ncc21` [Example 54, 3-methyl-8-[6-[3-(1-piperidyl)propoxy]-3-pyridyl]-1-[(3R)-tetrahydrofuran-3-yl]imidazo[4,5-c]quinolin-2-one methane sulfonic acid salt] here?
**A.** Its IC50 is over 16.7 µM.

**Q.** `CO[C@@H]1CC[C@@H](n2c(=O)n(C)c3cnc4ccc(-c5ccc(OCCCN6CCCC6)nc5)cc4c32)C1` [Example 67, 1-[(1R,3R)-3-methoxycyclopentyl]-3-methyl-8-[6-(3-pyrrolidin-1-ylpropoxy)-3-pyridyl]imidazo[4,5-c]quinolin-2-one] was tested. Which IC50 (ATM kinase) did it give?
**A.** Its IC50 is under 0.0525 nM.
